This note sets out measurements from US20220024982A1, “BICYCLIC PEPTIDE LIGANDS SPECIFIC FOR MT1-MMP” (BicycleTx Limited, priority 2018, published 2022).

A value given as a limit tells only on which side of the number the result lay.

One experiment addresses MT1-MMP Hemopexin domain (PEX) (Homo sapiens, UniProt P50281). Put plainly: MT1-MMP fluorescence polarisation competition binding assay. Conditions: Plate 1; read-out: Plate 1 Ki (FP-comp). An excerpt:
Due to their high affinities to the MT1-MMP Hemopexin domain (PEX), the fluoresceinated derivatives of 17-69-07 and 17-69-12 (denoted as 17-69-07-N040, 17-69-07-N041 and 17-69-12-N004) can be used for competition experiments (using FP for detection)
Here, a pre-formed complex of PEX with the fluorescent PEX-binding tracer is titrated with free, non-fluoresceinated bicyclic peptide. Since all 17-69-based peptides are expected to bind at the same site, the titrant will displace the fluorescent tracer from PEX. Dissociation of the complex can be measured quantitatively, and the Kd of the competitor (titrant) to the target protein determined. The advantage of the competition method is that the affinities of non-fluoresceinated bicyclic peptides can be determined accurately and rapidly.
Concentrations of tracer are usually at the Kd or below (here, 1 nM), and the binding protein (here, hemopexin of MT1-MMP) is at a 15-fold excess such that >90% of the tracer is bound. Subsequently, the non-fluorescent competitor bicyclic peptide (usually just the bicycle core sequence) is titrated, such that it displaces the fluorescent tracer from the target protein. The displacement of the tracer is measured and associated with a drop in fluorescence polarisation. The drop in fluorescence polarisation is proportional to the fraction of target protein bound with the non-fluorescent titrant, and thus is a measure of the affinity of titrant to target protein.
In certain experiments, collagen binding tracers (i.e. 17-88-N006 and 17-88-226-N002) were used in an analogous manner to the hemopexin binding tracers.
The raw data is fit to the analytical solution of the cubic equation that describes the equilibria between fluorescent tracer, titrant, and binding protein. The fit requires the value of the affinity of fluorescent tracer to the target protein, which can be determined separately by direct binding FP experiments (see previous section). The curve fitting was performed using Sigmaplot 12.0 and used an adapted version of the equation described by Zhi-Xin Wang (FEBS Letters 360 (1995) 111-114).
Regarding [Ac]LPP-(SEQ ID NO: 71) [BCY11154], the Ki was 129 nM.
The same measure, in the same setting: next, [Ac]LYP-(SEQ ID NO: 17) [BCY11147]: 53 nM.
With [Ac]LPP-(SEQ ID NO: 70) [BCY11153], the Ki was 43 nM.
Still for that read-out and setting: the same measure for [Ac]LPP-(SEQ ID NO: 68) [BCY11151]: 35 nM; for [Ac]LPP-(SEQ ID NO: 69) [BCY11152]: 68 nM.

The experiment is the same for the next values; noted with them: Plate 2; read-out: Plate 2 Ki (FP-comp).
On to [Ac]LPP-(SEQ ID NO: 75) [BCY11160], for which the Ki turned out to be 289 nM.
The same measure, in the same setting: next, [Ac]LP[dA]-(SEQ ID NO: 17) [BCY11167]: 135 nM; [Ac][dA]PP-(SEQ ID NO: 17) [BCY11165]: 72 nM; [Ac]L[dA]P-(SEQ ID NO: 17) [BCY11166]: 92 nM.

The experiment is the same for the next values; noted with them: tracer 17-69-07-N040 (hemopexin binding tracer); read-out: Kd (nM ± 95% CI).
Consider A-(SEQ ID NO: 118)-A [17-126-23], for which the Kd was 409 nM.
Turning to A-(SEQ ID NO: 81)-A [17-129-00], the Kd is 446 nM.
Same read-out and setting: the same measure for ANE-(SEQ ID NO: 129)-A [17-126-36-T01]: 149 nM; for A-(SEQ ID NO: 119)-A [17-126-24]: 200 nM; for Q-(SEQ ID NO: 95)-NA [17-129-14-T01]: 246 ± 46.1 nM.
On the same count and under the same terms, next, A-(SEQ ID NO: 89)-A [17-129-08]: 516 nM; SRS-(SEQ ID NO: 98)-A [17-129-17-T02]: 369 nM; A-(SEQ ID NO: 95)-NVI [17-129-14-T02]: 318 nM.
The same measure, in the same setting: the same measure for A-(SEQ ID NO: 136)-A [17-126-12]: 2900 nM; for A-(SEQ ID NO: 101)-TVL [17-129-20-T01]: 213 nM; for A-(SEQ ID NO: 88)-A [17-129-07]: 582 nM.
Regarding T-(SEQ ID NO: 94)-NA [17-129-13-T01], the Kd was determined as 248 nM.
Still for that read-out and setting: the same measure for A-(SEQ ID NO: 113)-A [17-126-18]: 147 nM; for A-(SEQ ID NO: 137)-A [17-122-02]: above 929 nM; for A-(SEQ ID NO: 83)-A [17-129-02]: 877 ± 651 nM.
The same measure, in the same setting: next, A-(SEQ ID NO: 86)-A [17-129-05]: 136 ± 22.3 nM; ENITT-(SEQ ID NO: 82)-A [17-129-01-T05]: 324 nM; SHS-(SEQ ID NO: 127)-A [17-126-33-T02]: 296 nM.
With A-(SEQ ID NO: 90)-A [17-129-09], the Kd amounted to 1090 nM.
On the same count and under the same terms, next, A-(SEQ ID NO: 117)-A [17-126-22]: 295 nM.
Same read-out and setting: the same measure for SRM-(SEQ ID NO: 98)-A [17-129-17-T01]: 418 nM; for A-(SEQ ID NO: 134)-RENA [17-126-41-T01]: 202 nM; for AVW-(SEQ ID NO: 130)-A [17-126-37-T01]: 155 nM.
Same read-out and setting: the same measure for A-(SEQ ID NO: 120)-A [17-126-25]: above 139 nM.
In the case of A-(SEQ ID NO: 121)-A [17-126-26], the Kd turned out to be 1200 nM.
Still for that read-out and setting: the same measure for DNM-(SEQ ID NO: 99)-A [17-129-18-T02]: 334 nM; for A-(SEQ ID NO: 110)-A [17-126-08]: 711 nM; for D-(SEQ ID NO: 97)-RA [17-129-16-T01]: 263 nM.
On the same count and under the same terms, the same measure for A-(SEQ ID NO: 123)-A [17-126-28]: 250 nM; for DLH-(SEQ ID NO: 128)-A [17-126-35-T01]: 263 nM; for IHS-(SEQ ID NO: 126)-A [17-126-32-T01]: 390 nM.
As for WSP-(SEQ ID NO: 127)-A [17-126-33-T01], the Kd was 244 nM.
The same measure, in the same setting: the same measure for SMT-(SEQ ID NO: 82)-A [17-129-01-T02]: 525 nM; for A-(SEQ ID NO: 80)-A [17-127-01]: 2200 nM; for ADY-(SEQ ID NO: 99)-A [17-129-18-T04]: 172 ± 53.9 nM.
On the same count and under the same terms, the same measure for L-(SEQ ID NO: 93)-HA [17-129-12-T01]: 187 nM; for SLV-(SEQ ID NO: 82)-A [17-129-01-T03]: 598 nM; for A-(SEQ ID NO: 102)-SWL [17-129-21-T01]: 111 ± 33.7 nM.
Same read-out and setting: next, A-(SEQ ID NO: 92)-A [17-129-11]: 912 nM.
In the case of A-(SEQ ID NO: 133)-HQAA [17-126-40-T01], the Kd stood at 310 nM.
Same read-out and setting: next, A-(SEQ ID NO: 139)-A [17-122-04]: above 2100 nM; A-(SEQ ID NO: 112)-A [17-126-10]: 737 nM.
The same measure, in the same setting: the same measure for A-(SEQ ID NO: 108)-A [17-126-06]: 675 ± 192 nM.
For the substance RYMTR-(SEQ ID NO: 98)-A [17-129-17-T03], the Kd is 312 nM.
HSP-(SEQ ID NO: 124)-A [17-126-30-T01]: the Kd turned out to be 239 nM.
The same measure, in the same setting: the same measure for A-(SEQ ID NO: 115)-A [17-126-20]: 246 nM; for A-(SEQ ID NO: 85)-A [17-129-04]: 595 ± 372 nM.

The experiment is the same for the next values; noted with them: tracer 17-69-07-N041 (hemopexin binding tracer); read-out: Kd (nM ± 95% CI).
For the substance A-(SEQ ID NO: 107)-A [17-126-03], the Kd was above 430 nM.
A-(SEQ ID NO: 106)-A [17-126-02]: the Kd was above 282 nM.
For A-(SEQ ID NO: 105)-A [17-126-01], the Kd is above 316 nM.

Staying with this experiment, now noted: tracer 17-69-12-N004 (hemopexin binding tracer); read-out: Kd (nM ± 95% CI).
In the case of “Ac-A-(SEQ ID NO: 120)-A [Ac-(17-126-25)]”, the Kd is 60.5 nM.
On to “Ac-(SEQ ID NO: 104)-YSE [Ac-(17-129-23-T01)]”, for which the Kd is 8.9 nM.

The experiment is the same for the next values; noted with them: tracer 17-88-226-N002 (collagen binding tracer); read-out: Kd (nM ± 95% CI).
As to “Sar3-ALPP-(SEQ ID NO: 15) [Sar3-A-(17-120-09-T03) Arg9]”, the Kd amounted to 8.28 ± 3.53 nM.
The same measure, in the same setting: next, (B-Ala)-Sar10-ALPP-(SEQ ID NO: 18): 190 ± 32.2 nM; “Sar3-ALPP-(SEQ ID NO: 13) [Sar3-A-(17-120-09-T03)]”: 16.3 ± 5.73 nM; “Sar3-ALPP-(SEQ ID NO: 14) [Sar3-A-(17-120-09-T03) HArg2]”: 26.6 ± 9.31 nM.
The same measure, in the same setting: next, (B-Ala)-Sar10-ALPP-(SEQ ID NO: 17): 39.5 ± 16.4 nM.

Still in this experiment, the particulars now being: tracer 17-88-N006 (collagen binding tracer); read-out: Kd (nM ± 95% CI).
As to ATQP-(SEQ ID NO: 25)-A [17-120-15-T01], the Kd was found to be 178 nM.
On the same count and under the same terms, the same measure for EPPP-(SEQ ID NO: 13)-A [17-120-09-T07]: 48.1 nM; for APMP-(SEQ ID NO: 20)-A [17-120-10-T01]: 132 ± 103 nM; for ADRP-(SEQ ID NO: 24)-A [17-120-14-T01]: 148 nM.
APAP-(SEQ ID NO: 33)-A [17-120-23-T01]: the Kd was found to be 127 ± 7.84 nM.
With SPPP-(SEQ ID NO: 25)-A [17-120-15-T02], the Kd worked out at 76.7 ± 72.9 nM.
On the same count and under the same terms, next, A-(SEQ ID NO: 8)-A [17-120-03]: 604 ± 35 nM; SPPP-(SEQ ID NO: 43)-A [17-120-33-T01]: 77.6 nM; HLPP-(SEQ ID NO: 41)-A [17-120-31-T01]: 50.2 nM.
Same read-out and setting: the same measure for APPP-(SEQ ID NO: 41)-A [17-120-31-T03]: 41.5 ± 5.32 nM.
Still for that read-out and setting: the same measure for AAPP-(SEQ ID NO: 37)-A [17-120-27-T01]: 394 nM; for NPPP-(SEQ ID NO: 13)-A [17-120-09-T06]: 49.8 nM.
With SPPP-(SEQ ID NO: 13)-A [17-120-09-T05], the Kd was 32.3 ± 6.81 nM.
The same measure, in the same setting: next, AVPP-(SEQ ID NO: 39)-A [17-120-29-T01]: 162 ± 68.6 nM.
Same read-out and setting: the same measure for APDP-(SEQ ID NO: 13)-A [17-120-09-T10]: 38.5 nM; for A-(SEQ ID NO: 12)-A [17-120-08]: 258 ± 102 nM; for MPPP-(SEQ ID NO: 42)-A [17-120-32-T01]: 63.8 ± 26.5 nM.
With APPP-(SEQ ID NO: 44)-A [17-120-34-T01], the Kd was found to be 59.9 ± 8.58 nM.
Take ALDP-(SEQ ID NO: 23)-A [17-120-13-T01]: the Kd turned out to be 189 ± 123 nM.
With APPP-(SEQ ID NO: 38)-A [17-120-28-T01], the Kd came out at 192 ± 4.9 nM.
On the same count and under the same terms, the same measure for APSP-(SEQ ID NO: 32)-A [17-120-22-T01]: 62.4 ± 30.5 nM; for SPPP-(SEQ ID NO: 40)-A [17-120-30-T01]: 78.7 nM; for APHP-(SEQ ID NO: 13)-A [17-120-09-T13]: 69.3 nM.
Consider AALP-(SEQ ID NO: 22)-A [17-120-12-T01], for which the Kd was determined as 183 nM.
Regarding ARHP-(SEQ ID NO: 26)-A [17-120-16-T01], the Kd worked out at 74.4 ± 17.6 nM.
Still for that read-out and setting: the same measure for GPPP-(SEQ ID NO: 13)-A [17-120-09-T04]: 34.1 ± 10.2 nM; for APNP-(SEQ ID NO: 13)-A [17-120-09-T09]: 77.2 nM.
